From PubChem BioAssay AID540364 (The Scripps Research Institute Molecular Screening Center, 2011) come the findings set out here.

Only a part is listed here, and it is no random draw. Activity calls are given as the source filed them.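 The calls were made as follows: active = activation above the average of all compounds screened plus 3 SD, cutoff fixed separately per campaign (cut at about 7.5% in these data); inactive = the rest.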

This experiment in a line: FXN promoter activators, primary screen, cell-based, luciferase luminescence, HEK293 lucGAA850 (AID 540364).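 Also: 0% = DMSO wells and 100% = 10 µM SAHA wells.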 The note with it: HEK293 lucGAA850 FXN promoter luciferase reporter, 24 h; at 6 µM; stronger effect = higher value; percent of 10 µM SAHA response. Background: In a reporter assay the amount or activity of a reporter protein is the signal.
In the case of `C[N+]1=C2C=CC=CC=C2SC12C([N+](=O)[O-])=CC([N+](=O)[O-])=C[C-]2[N+](=O)[O-]` (centres undefined), the activation is inactive: -13.6%.

Regarding `Nc1ccc([As](=O)(O)c2ccc(N)cc2)cc1`, the activation was inactive: 2.96%.

Take `c1cc(-c2nn[nH]n2)ccc1-c1nn[nH]n1`: the activation was inactive: -0.06%.

`CC1CCN(C(=O)Oc2c(Cl)cc(Cl)c3cccnc23)CC1`: the activation was inactive: 1.64%.

With `CN(C)C(=O)OCCc1n(C)cc[n+]1C`, the activation is inactive: 0.69%.

With `CC(C)=N/N=C(\N)N[N+](=O)[O-]`, the activation is inactive: 1.79%.

Consider `CC(C)c1nc(Nc2ccccc2)n(P(=O)(N(C)C)N(C)C)n1`, for which the activation is inactive: -0.65%.

For `O=P1(N(CCCl)CCCl)OCCCS1` (centres undefined), the activation was inactive: 1.4%.

Turning to `O=C(Nc1cc([As](=O)(O)O)ccc1O)c1ccccc1`, the activation was inactive: 0.51%.

With `O=[N+]([O-])c1ncn(CCn2ncnc2[N+](=O)[O-])n1`, the activation was inactive: 0.27%.

`CC(C)(C)C(=O)NC(Sc1ccncn1)C(Cl)(Cl)Cl` (centres undefined): the activation is inactive: -0.21%.

`O=C(O)CNc1ccc([As](=O)(O)O)cc1`: the activation is inactive: 2.35%.

Turning to `O=[N+]([O-])c1cccc(NC2=NCC(CBr)S2)c1` (centres undefined), the activation is inactive: 2.62%.

On to `COC(=O)C1(C)COP(=O)(Nc2ccccc2)OC1` (centres undefined), for which the activation is inactive: 0.13%.

As to `CN(C)C1(CNC(=O)c2ccc(Cl)c(S(N)(=O)=O)c2)CCCCC1`, the activation was inactive: 0.66%.

As for `O=P(Nc1ccccn1)(c1ccc(Br)cc1)c1ccc(Br)cc1`, the activation is inactive: 0.23%.

Take `COc1ccc(N)c([N+](=O)[O-])c1[N+](=O)[O-]`: the activation was inactive: 0.59%.

For `C[C@H]1OP(=O)(Oc2ccccc2)[C@H](O)[C@H](O)[C@H]1N=[N+]=[N-]` (some centres undefined), the activation was inactive: 0.89%.

Turning to `O=P(Nc1nc2ccccc2s1)(c1ccccc1)c1ccccc1`, the activation was inactive: 0.58%.

In the case of `O=[As](O)(c1ccccc1)c1ccc(O)cc1`, the activation was inactive: 1.91%.

On to `O=[N+]([O-])c1ncn(CCn2cnc([N+](=O)[O-])n2)n1`, for which the activation was inactive: 0.84%.

As for `CC(=O)NC(SC(=S)N(C)C)C(Cl)(Cl)Cl` (centres undefined), the activation is active: 11%.

Take `O=[N+]([O-])c1ccc(O)c(/C=N/Nc2ccc([N+](=O)[O-])cc2[N+](=O)[O-])c1`: the activation was inactive: -0.94%.

As to `O=C(OC1CN2CCC1CC2)c1cccc(Cl)c1` (centres undefined), the activation was inactive: 0.2%.

As for `Nc1ccc([As](=O)(O)c2ccc([N+](=O)[O-])cc2)cc1`, the activation is inactive: 0.15%.

`C(Cc1nn[nH]n1)Cc1nn[nH]n1`: the activation was inactive: 0.7%.

With `O=P(Nc1nccs1)(c1ccccc1)c1ccccc1`, the activation was inactive: 3.31%.

As for `CC(C)C(=O)NC(Sc1ccccc1)C(Cl)(Cl)Cl` (centres undefined), the activation was inactive: -1.54%.

On to `c1nnnn1CCn1cnnn1`, for which the activation was inactive: 2.08%.

Consider `CCOc1ccc(C2=NCC(CBr)S2)cc1` (centres undefined), for which the activation was inactive: -0.51%.

In the case of `O=P1(Nc2nc3ccc(Cl)cc3s2)COc2ccccc2O1` (centres undefined), the activation is inactive: 1.37%.

As for `CC(C)(C)C(=O)NC(Sc1ccccc1)C(Cl)(Cl)Cl` (centres undefined), the activation was inactive: -0.11%.

In the case of `CCc1cc(O)c([N+](=O)[O-])c(C)c1[N+](=O)[O-]`, the activation is inactive: 0.93%.

Take `C[C@@H]1C=CCP(=O)(Oc2ccccc2)O1` (some centres undefined): the activation was inactive: 2.72%.

On to `C[C@H]1OP(=O)(Oc2ccccc2)C[C@@H]2O[C@@H]21` (some centres undefined), for which the activation was inactive: -0.08%.

As to `Cc1ccccc1CN(C)C(=O)COC(=O)C(O)(c1ccccc1)c1ccccc1`, the activation was inactive: -1.15%.

Consider `COC(=O)C1(C)COP(=O)(NCc2ccccc2)OC1` (centres undefined), for which the activation is inactive: -2.24%.

With `N#C/C(=C\c1ccc(N(CCBr)CCBr)cc1)C(N)=O`, the activation was inactive: -4.47%.

For `CC(=O)c1ccc(N2CC2c2ccncc2)cc1` (centres undefined), the activation is inactive: -0.29%.

Regarding `CC(=O)Nc1ccc(Oc2c([N+](=O)[O-])cc([N+](=O)[O-])cc2[N+](=O)[O-])cc1`, the activation is inactive: -0.13%.

`CC(=O)Nc1ccc([As](=O)(O)O)c(O)c1`: the activation is inactive: 1.34%.

Consider `Cc1ccc(NP(=O)(Oc2cccc(C)c2)Oc2cccc(C)c2)nc1`, for which the activation is inactive: 0.45%.

Consider `c1ccc(-c2nn[nH]n2)c(-c2nn[nH]n2)c1`, for which the activation is inactive: 0.92%.

With `O=C(NC1CCS(=O)(=O)C1)NP(=S)(Oc1ccccc1)Oc1ccccc1` (centres undefined), the activation was inactive: -1.84%.

For the compound `CCNC(=S)/N=C(\N)N[N+](=O)[O-]`, the activation is inactive: 0.08%.

As to `O=P1(N(CCCl)CCCl)OCCC2CCCCN21` (centres undefined), the activation is inactive: -0.65%.

Turning to `CCC(=O)N1C2C3N(C(=O)CC)C1C1N(C(=O)CC)C(C(N1C(=O)CC)N3C(=O)CC)N2C(=O)CC`, the activation was inactive: -1.32%.

Consider `O=C(OC1CN2CCC1CC2)c1ccccc1` (centres undefined), for which the activation was inactive: 2.2%.

For `Cc1ccc(OP(=O)(Nc2ccccn2)Oc2ccc(C)cc2)cc1`, the activation was inactive: -1.95%.

Regarding `CC(=O)NC(SC(=S)N(CC(C)C)CC(C)C)C(Cl)(Cl)Cl` (centres undefined), the activation was inactive: 1.44%.

For `COC(=O)c1cc2c(s1)N=C(c1ccccc1)N(C)P2(=O)N1CCOCC1` (centres undefined), the activation was inactive: 0.26%.

For the compound `CN(C)C(=O)Oc1noc2ccccc12`, the activation was inactive: -0.64%.

Turning to `O=c1c2cc([N+](=O)[O-])ccc2[nH]c2c([N+](=O)[O-])cc([N+](=O)[O-])cc12`, the activation was inactive: -3.06%.

`Cc1ccccc1OP(=O)(Nc1ccccn1)Oc1ccccc1C`: the activation is inactive: -0.04%.

`CC(NC(=O)COC(=O)C(O)(c1ccccc1)c1ccccc1)c1ccccc1` (centres undefined): the activation was inactive: -1.89%.

With `O=P(Nc1nccs1)(c1ccccc1)c1nc2ccccc2s1` (centres undefined), the activation was inactive: 4.55%.

Turning to `O=P(Nc1nccs1)(Oc1ccccc1)Oc1ccccc1`, the activation was inactive: 1.23%.

Take `CCOP1(=S)c2c(C)nn(CCC#N)c2N=C(c2ccccc2F)N1C` (centres undefined): the activation is inactive: 4.11%.

`CS(=O)(=O)c1cc([N+](=O)[O-])c2no[n+]([O-])c2c1`: the activation was inactive: -1.25%.

As to `O=C(O)COc1ccc([As](=O)(O)O)cc1[N+](=O)[O-]`, the activation is inactive: 0.7%.

For the compound `Nc1ccccc1[As](=O)(O)c1ccccc1`, the activation is inactive: 0.62%.

For `NC(=O)Nc1ccc([As](=O)(O)O)cc1`, the activation was inactive: 1%.

In the case of `CN(C(=O)Cc1ccccc1)[C@@H]1CC[C@]2(CCCO2)C[C@H]1N1CCCC1`, the activation is inactive: -2.04%.

In the case of `CCOP1(=S)c2c(C)nn(CCC#N)c2N=C(c2ccc(F)cc2)N1C` (centres undefined), the activation is inactive: 5%.
